# Assay results: ChEMBL document CHEMBL1147892, “Quercinol, an anti-inflammatory chromene from the wood-rotting fungus Daedalea quercina (Oak Mazegill)” (Bioorg Med Chem Lett, 2007)
# Protein sequences, listed by entry. Tags and fused reporters are not part of them. Lines headed by an entry give the natural chain unless they say otherwise; changes in a name come on top.
# UniProt Q9BPW9: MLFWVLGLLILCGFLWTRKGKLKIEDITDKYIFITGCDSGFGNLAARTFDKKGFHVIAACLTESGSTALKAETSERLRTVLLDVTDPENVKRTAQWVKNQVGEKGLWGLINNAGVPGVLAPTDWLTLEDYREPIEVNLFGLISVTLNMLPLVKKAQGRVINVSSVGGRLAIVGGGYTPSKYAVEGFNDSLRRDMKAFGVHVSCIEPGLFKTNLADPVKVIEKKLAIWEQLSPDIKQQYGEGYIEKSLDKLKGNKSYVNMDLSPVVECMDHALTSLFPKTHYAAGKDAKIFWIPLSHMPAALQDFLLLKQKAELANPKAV
# Biological target: Dehydrogenase/reductase SDR family member 9 (Homo sapiens, UniProt Q9BPW9)
# Assay: Inhibition of 3alphaHSD
smiles,measurement,value
COc1ccc2c(c1)c(CC(=O)O)c(C)n2C(=O)c1ccc(Cl)cc1 [INDOMETHACIN],IC50,14 µM
